The nature of experiment [1]: Selectivity ratio of IC50 for inhibition of porcine heart MDH to IC50 for inhibition of recombinant human LDHB.
A short description of experiment [2]: Selectivity ratio of IC50 for inhibition of porcine heart MDH to IC50 for inhibition of recombinant human LDHA.

Structures are written as SMILES. Bounds are passed on as bounds.

For the molecule `Cc1cc(C#Cc2cccc(-c3nn(-c4nc(C(=O)O)cs4)c(CC4CC4)c3Cc3ccc(S(N)(=O)=O)c(F)c3)c2)c(C)s1`, the Ratio IC50 in experiment [1] and in experiment [2] was above 2500 each time.
